# Values quoted from earlier work, collected in patent US5054434A, “Suppression of ammonia odors from animal wastes” (W. R. Grace & Co.-Conn., priority 1989, dated 1991).
# System: rat
# Conditions: cited from earlier work
smiles,measurement,value
"C/C=C/C=C/C(=O)O [Sorbic, sorbic]",Oral LD50,"7,400 mg/kg"
